Details: Tc-99m-labeled peptide

| Substance | Radioactivity peaks in HPLC profile (structural stability and labeling purity) |
| --- | --- |
| Ac-KYCAREPPTRTFAYWGQG-NH2 | two radioactivity peaks |
| KYCAREPPTRTFAYWGQG-NH2 | a single radioactivity peak |
